# Experimental data reported in patent publication US7736646B2, “Methods for modulating angiogenesis with apelin compositions” (Arizona Board of Regents on behalf of the University of …, priority 2003, dated 2010).
# Test system: frog embryos
# Test: Growth factor-soaked beads implanted in frog embryos, vascular outgrowth by erg in situ hybridization
# Conditions: beads soaked in apelin peptide 0.1 mg/ml, mutated apelin peptide 0.25 mg/ml, BSA 1 mg/ml or rm VEGF-164 0.25 mg/ml; implanted stage 24-26, assayed stage 35-37
# Protocol: Beads were microsurgically implanted in an avascular region, the posterior lateral mesoderm, of stage 24-26 embryos. Embryos were cultured in 0.2×MMR until stage 35-37, at which time they were prepared for whole mount in situ hybridization analysis as described in Example 2. The embryonic vascular system was visualized using an antisense probe directed against transcripts encoding the Xenopus vascular marker, erg (Baltzinger et al., 1999, Dev. Dyn. 216:420-33).
substance,measurement,value
apelin-13,outgrowth of developing blood vessels toward soaked beads,outgrowth of developing blood vessels toward the apelin-soaked beads
